Results: ChEMBL document CHEMBL1131112, “Matrix metalloproteinase inhibitors: a structure-activity study” (J Med Chem, 1998)

Protein sequences, listed by entry. Tags and fused reporters are not part of them. Lines headed by an entry give the natural chain unless they say otherwise; changes in a name come on top.
UniProt P22894: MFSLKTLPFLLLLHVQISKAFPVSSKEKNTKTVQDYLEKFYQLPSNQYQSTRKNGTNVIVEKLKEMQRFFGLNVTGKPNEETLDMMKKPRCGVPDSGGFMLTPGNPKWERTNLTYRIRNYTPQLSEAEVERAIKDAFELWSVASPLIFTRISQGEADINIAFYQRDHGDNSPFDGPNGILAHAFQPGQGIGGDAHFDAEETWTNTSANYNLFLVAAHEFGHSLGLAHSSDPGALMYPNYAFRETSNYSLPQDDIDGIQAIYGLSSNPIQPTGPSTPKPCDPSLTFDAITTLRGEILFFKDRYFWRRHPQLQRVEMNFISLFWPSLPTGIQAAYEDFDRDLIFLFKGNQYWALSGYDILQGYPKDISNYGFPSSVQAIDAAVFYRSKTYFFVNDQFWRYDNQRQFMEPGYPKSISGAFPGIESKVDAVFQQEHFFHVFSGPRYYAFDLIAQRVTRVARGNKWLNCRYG

Biological target: Neutrophil collagenase (Homo sapiens, UniProt P22894)

| SMILES | Ki [nM] |
| --- | --- |
| CC(C)C[C@H](CC(=O)NO)C(=O)N[C@@H](Cc1c[nH]c2ccccc12)C(=O)N[C@H]1c2ccccc2C[C@H]1O | 73 |
| CC(C)C[C@H](CC(=O)NO)C(=O)N[C@@H](Cc1c[nH]c2ccccc12)C(=O)N[C@@H]1c2ccccc2C[C@@H]1O | 6.2 |
